Measured values taken from patent US10227281B2, “Preparation of 2,6- and 2,7-disubstituted anthraquinone derivates” (BASF SE, priority 2014, dated 2019).

Assay: Determination of the solubility of anthraquinone derivatives in xylene/diisobutylcarbinol
Conditions: mixture of xylene (50 volume-%) and diisobutylcarbinol (50 volume-%), 22° C., quinone form

2,6-(1,5-dimethy)-nonylanthracene-9,10-dione and 2,7-(1,5-dimethy)-nonylanthracene-9,10-dione [Example 6]
Solubility: 390 mM
